In patent publication US9949956B2, “Compounds, compositions, and methods for preventing metastasis of cancer cells” (Aerpio Therapeutics, Inc., priority 2009, dated 2018):

System: B16 melanoma cells
Assay: In vivo anticancer study, B16 melanoma
Set-up: species or system C57BL/6 mice
Description: The effectiveness of the disclosed compounds as a treatment for melanoma was studied. C57BL/6 mice (6-8 weeks-old, female, Taconic Farm) were inoculated with B16 melanoma cells (5×10^4 cells/site, s.c.). On day 4 post-inoculation, the mice (5/group) were treated (5 day/week, M-F) with vehicle control (bid, i.p.), low dose of IL-2 (100,000 IU/mouse, bid, i.p.), high dose of IL-2 (300,000 IU/mouse, bid, i.p.), or their combinations with D91 (40 mg/kg, bid, s.c., administered 30 minutes prior to IL-2). Tumor volumes were recorded. In a separate experiment, mice similarly inoculated with B16 melanoma cells were treated (5 day/week, M-F) with vehicle control (bid, i.p.), IL-2 (300,000 IU/mouse, bid, i.p.), high dose of D91 (40 mg/kg, bid, s.c.), low dose of D91 (10 mg/kg, bid, s.c.) or the combination of IL-2 (300,000 IU/mouse, bid, i.p.) with low dose of D91 (10 mg/kg, bid, s.c., administered 30 minutes prior to IL-2). Tumor volumes were recorded.

In the case of “IL-2: IL-2 given i.p. twice daily at 100,000 or 300,000 IU/mouse, alone or with D91”, the tumor volume (high dose of IL-2 (300,000 IU/mouse, bid, i.p.) alone versus control, FIG. 3) is reported as “reduced tumor volume as expected versus control” and the tumor volume reduction (low dose of IL-2 (100,000 IU/mouse, bid, i.p.) alone, termination of the study on day 22, FIG. 6) is reported as “did not show measurable tumor volume reduction”.
